These compounds were tested against T1, human mPGES-1 (Homo sapiens, UniProt O14684) (assay: Microsomal prostaglandin E synthase assay). Conditions: read-out: h-CHO (nM); potency expressed as IC50; microsomes of CHO-K1 cells transfected with human mPGES-1; PGE2 by EIA; average of at least n=3.
Assay type: biochemical

By UniProt entry, the sequences of proteins in these tests, tags left out.
UniProt O14684, whole entry: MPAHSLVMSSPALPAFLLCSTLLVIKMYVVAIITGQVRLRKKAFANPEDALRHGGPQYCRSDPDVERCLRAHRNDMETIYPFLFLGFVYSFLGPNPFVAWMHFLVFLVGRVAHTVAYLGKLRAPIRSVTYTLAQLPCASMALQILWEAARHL

IC50 [nM]	SMILES
1.5	COCC#Cc1ccc2c(c1)c1cc(Cl)ccc1c1[nH]c(-c3c(C#N)cccc3C#N)nc21
2.1	N#Cc1cncc(C#N)c1-c1nc2c3ccc(Cl)cc3c3ccccc3c2[nH]1
1.7	C=Cc1ccc2c(c1)c1ccccc1c1[nH]c(-c3c(C#N)cccc3C#N)nc21
1.5	CS(=O)(=O)c1ccc(-c2ccc3c(c2)c2cc(Cl)ccc2c2[nH]c(-c4c(C#N)cccc4C#N)nc32)cc1
1.5	N#Cc1cccc(C#N)c1-c1nc2c3ccc(C4CC4)cc3c3cc(Cl)ccc3c2[nH]1
2.1	N#Cc1cccc(F)c1-c1nc2c3ccc(Cl)cc3c3ccccc3c2[nH]1
9.9	CC(=O)c1ccc2c(c1)c1cc(Cl)ccc1c1nc(-c3c(Br)cccc3C#N)[nH]c21
13.1	CC(=O)c1ccc2c(c1)c1cc(Cl)ccc1c1nc(-c3c(F)cccc3C#N)[nH]c21
4.8	CC(O)c1ccc2c(c1)c1cc(Cl)ccc1c1nc(-c3c(C#N)cccc3C#N)[nH]c21 (stereo not shown)
0.9	N#Cc1cccc(C#N)c1-c1nc2c3ccc(C#CC4(O)CCCC4)cc3c3cc(Cl)ccc3c2[nH]1
1.1	CC(O)C#Cc1ccc2c(c1)c1cc(Cl)ccc1c1[nH]c(-c3c(C#N)cccc3C#N)nc21 (stereo not shown)
1.2	CC(C)(O)c1cccc(-c2ccc3c(c2)c2cc(Cl)ccc2c2nc(-c4c(C#N)cccc4C#N)[nH]c32)c1
0.9	CC(C)(O)C#Cc1ccc2c(c1)c1cc(Br)ccc1c1[nH]c(-c3c(Cl)cccc3C#N)nc21
1.9	N#Cc1cccc(F)c1-c1nc2c3ccc(Br)cc3c3cc(Br)ccc3c2[nH]1
2.4	N#Cc1cccc(C#N)c1-c1nc2c3ccc(C#Cc4cc[n+]([O-])cc4)cc3c3cc(Cl)ccc3c2[nH]1
1.7	CC(=O)C#Cc1ccc2c(c1)c1cc(Cl)ccc1c1[nH]c(-c3c(C#N)cccc3C#N)nc21
12	CC(C)(O)c1ccc2c(c1)c1cc(Cl)ccc1c1nc(-c3c(F)cccc3C#N)[nH]c21
2	CC(O)(c1ccc2c(c1)c1cc(Cl)ccc1c1[nH]c(-c3c(F)cccc3C#N)nc21)C(F)(F)F (stereo not shown)
3.7	N#Cc1cccc(Br)c1-c1nc2c3ccc(Cl)cc3c3cc([S+]([O-])C(F)(F)F)ccc3c2[nH]1 (stereo not shown)
1.2	N#Cc1cccc(Cl)c1-c1nc2c3ccc(C#CC4(O)CCOCC4)cc3c3cc(Br)ccc3c2[nH]1
1	N#Cc1cccc(C#N)c1-c1nc2c3ccc(Cl)cc3c3cc(-c4ccc(N5CCOCC5)nc4)ccc3c2[nH]1

What follows are compounds tested against T1, human mPGES-1 (assay: Human A549 whole cell prostaglandin E synthase assay). Conditions: read-out: IC50 of IL-1β induced mPGES-1 induced PGE2 synthesis; A549 human lung adenocarcinoma cells, IL-1β stimulated, 24 hours.

IC50 [nM]	SMILES
3.29	CC(C)(O)C#Cc1ccc2c(c1)c1cc(Br)ccc1c1[nH]c(-c3c(C#N)cccc3C#N)nc21
